Laboratory results: patent EP0555208B1, “METAL OXIMATE POLYETHYLENE GLYCOLS CHEMICAL DECONTAMINANT SYSTEM” (dated 1992)

How the values were obtained:
[1] = Dissolution of active salt in base cream
[2] = In-vitro destruction of mustard gas, effect of added water; conditions: 0.625 molal KDAMO in MPEG350, two hours

| Substance | salt that appears to dissolve ([1]; 1.25 molar in base cream 1) | salt that appears to dissolve ([1]; 1.25 molar in base cream 2) | salt that appears to dissolve ([1]; 1.25 molar in base cream 3) | solubility in base ([1]; 1.25 molar in base cream 4) | effectiveness for destruction of mustard gas ([2]; additions of water at 5%, 10%, and 20%) | effectiveness for destruction of mustard gas retained ([2]; highest addition of water (20%)) |
| --- | --- | --- | --- | --- | --- | --- |
| Potassium acetophenone oximate | at least 75% | at least 75% | dissolve completely | soluble | – | – |
| Potassium 2,3 butanedione monoximate | at least 75% | at least 75% | dissolve completely | – | decreased monotonically | more than 60% |
| potassium acetone oximate | at least 75% | at least 75% | dissolve completely | – | – | – |
